Reference: paper PMC3781062 (PLoS ONE, 2013)

Chains of the proteins cited; added tags and fusions are not shown.
UniProt P05177, whole entry: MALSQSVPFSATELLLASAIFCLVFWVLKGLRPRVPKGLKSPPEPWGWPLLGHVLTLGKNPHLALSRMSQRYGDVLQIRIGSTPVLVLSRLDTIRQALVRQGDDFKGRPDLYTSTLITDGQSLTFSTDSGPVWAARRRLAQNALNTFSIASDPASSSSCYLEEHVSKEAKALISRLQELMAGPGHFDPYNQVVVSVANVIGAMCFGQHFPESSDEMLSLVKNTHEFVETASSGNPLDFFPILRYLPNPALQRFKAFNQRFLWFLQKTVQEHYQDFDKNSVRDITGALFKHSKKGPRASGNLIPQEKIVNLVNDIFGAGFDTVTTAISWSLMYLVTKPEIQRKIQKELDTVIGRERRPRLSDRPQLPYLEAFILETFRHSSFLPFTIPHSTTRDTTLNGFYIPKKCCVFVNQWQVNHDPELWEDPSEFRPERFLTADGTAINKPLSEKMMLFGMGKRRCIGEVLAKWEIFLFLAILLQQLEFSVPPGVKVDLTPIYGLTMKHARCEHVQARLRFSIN

Biological target: CYP1A2 (Homo sapiens, UniProt P05177)
Type: in vitro ADME
Details: α-naphthoflavone 5 µM; recombinant CYP1A2

O=c1cc(-c2ccccc2)oc2c1ccc1ccccc12 [α-naphthoflavone]
8-MOP metabolism in presence of inhibitor: 34 % of control levels
